Assay results reported in patent US20150306096A1, “8'-HYDROXY-DIHYDROERGOTAMINE COMPOUNDS AND COMPOSITIONS” (MAP Pharmaceuticals, Inc., priority 2012, published 2015).

By UniProt entry, the sequences of proteins in these tests, tags left out.
UniProt P08908, whole entry: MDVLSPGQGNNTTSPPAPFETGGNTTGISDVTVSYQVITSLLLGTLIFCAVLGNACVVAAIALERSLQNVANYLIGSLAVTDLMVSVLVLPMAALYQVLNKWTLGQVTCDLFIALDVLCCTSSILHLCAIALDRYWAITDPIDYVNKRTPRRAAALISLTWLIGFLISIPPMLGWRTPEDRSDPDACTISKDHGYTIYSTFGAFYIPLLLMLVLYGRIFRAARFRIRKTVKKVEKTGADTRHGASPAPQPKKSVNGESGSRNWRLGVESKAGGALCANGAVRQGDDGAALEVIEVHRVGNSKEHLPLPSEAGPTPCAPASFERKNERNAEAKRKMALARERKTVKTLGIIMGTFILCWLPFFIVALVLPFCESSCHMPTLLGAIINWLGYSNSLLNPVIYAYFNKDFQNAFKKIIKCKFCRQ

Biological target: T1, human 5-HT1A receptor (Homo sapiens, UniProt P08908)
T1 construct: purchased Euroscreen; host or cells: CHO-K1
Assay: Radioligand competition binding and kinetics, CHO-K1 membranes
Conditions: [3H]-WAY100635, read-out: IC50 from binding assay
Procedure: For kinetics of radioligand competitive binding, serial dilutions were performed from master solution in 100% DMSO to obtain intermediate concentrations 200-fold higher than the concentrations to be tested. Each test sample was diluted 100-fold in the assay buffer and dispensed into the test plate.
Determination of the Kon constant. Radioligand association kinetics on each receptor were performed by adding in the wells of a 96 well plate 50 μL of radioligand and 50 μL of membrane extracts. The samples were incubated for the times reported in Table 3 below at a temperature optimized for each receptor and filtered over a filter plate. After washing the filters 5 times with 0.5 mL of ice-cold washing buffer, 50 μL of Microscint 20 (Packard) were added to the filters and the plates were incubated 15 min on an orbital shaker and then counted for 1 min/well. This allowed determination of the kobs for each radioligand. […] The different kobs were then plotted against the [radioligand] and the K. was calculated using the following equation: kon=(kobs−koff)[radioligand].
Determination of the Koff constant. […] The samples were incubated as reported in Table 4 below at a temperature optimized for each receptor until binding equilibrium was reached as determined by the association kinetics experiment. […]

For `CNS(=O)(=O)Cc1ccc2[nH]cc(CCN(C)C)c2c1` [Sumatriptan, sumatriptan], the IC50 was 778 nM.
